These are literature values, as cited in patent publication US20230114360A1, “Sublingual Delivery for Mitigation of Side Effects Associated with Zicronapine” (priority 2014, published 2023).

Like-named read-outs stand apart in the source and are kept apart here.

With `CN(C)C(=N)N=C(N)N` [Metformin, dimethylbiguanide], the “metabolites or conjugates identified” value (absence of liver metabolism) is “No metabolites or conjugates”. The therapeutic plasma level result is given as “one to two” (after a meal) and “one-half to one” (fasting state). In addition, the “time until gastrointestinal absorption is apparently complete” value (after ingestion) is “six”.
